US11576897B2, “Therapeutic agent for non-motor symptoms associated with Parkinson's disease” (priority 2017, dated 2023)

Target: human serotonin transporter (SERT) (Homo sapiens (Human), UniProt P31645)
Assay: Human serotonin transporter (SERT) binding test
Conditions: [3H]-citalopram, h-SERT/CHO cell membrane; read-out: h-SERT binding inhibition constant Ki

For CNCc1cc(OCc2ccccc2)n(CC2CC3CCC2C3)n1 (stereo not shown) [Example 115, 1-[5-(benzyloxy)-1-(bicyclo[2.2.1]hept-2-ylmethyl)-1H-pyrazol-3-yl]-N-methylmethanamine], which Ki is on record?
Its Ki is 1.5 nM.
